Tests used:
[1] = target: T1, CRF1R (Homo sapiens, UniProt P34998); test: CRF1R agonist activation (EC50 / Emax), called comparative CRF binding; type: cell-based; details: for EC50: CRF1R EC50; for Emax: read-out: CRF1R Emax
T1 sequence (P34998 24-415): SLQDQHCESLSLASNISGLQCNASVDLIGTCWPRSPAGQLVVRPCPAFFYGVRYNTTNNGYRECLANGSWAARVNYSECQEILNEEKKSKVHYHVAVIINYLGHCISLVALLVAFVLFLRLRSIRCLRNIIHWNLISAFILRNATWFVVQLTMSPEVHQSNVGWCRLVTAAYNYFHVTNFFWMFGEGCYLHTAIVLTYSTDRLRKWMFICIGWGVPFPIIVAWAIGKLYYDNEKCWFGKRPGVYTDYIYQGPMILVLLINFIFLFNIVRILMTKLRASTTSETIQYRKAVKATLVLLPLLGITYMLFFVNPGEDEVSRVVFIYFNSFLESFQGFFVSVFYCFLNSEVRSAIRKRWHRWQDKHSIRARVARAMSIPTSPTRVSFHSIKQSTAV
Description: (§1) The pharmacological activity and selectivity of the peptides of present invention can be determined using published test procedures. See, e.g, U.S. patent application Ser. No. 09/799,978 (now issued U.S. Pat. No. 6,670,140). Because CRF2R and CRF1R are homologous proteins, it is expected that a certain proportion of agonists for CRF2R will also function as agonists of CRF1R. As discussed above, activation of CRF1R induces activation of the HPA axis since increased corticosteroid production leads to skeletal muscle atrophy. In most cases in which an increase in muscle mass or function is desired, it is not desirable to activate the HPA axis.
(§2) Cell-based assays include the steps of contacting cells which express CRF1R or CRF2R with a peptide of the present invention or control and measuring activation of the CRFR by measuring the expression or activity of components of the CRFR signal transduction pathways.
(§3) For example, after contact with a peptide of the present invention, lysates of the cells can be prepared and assayed for induction of cAMP. cAMP is induced in response to Gαs activation. Because Gαs is activated by receptors other than CRFR and because a test peptide may be exerting its effect through CRFRs or by another mechanism, two control comparisons are relevant for determining whether the peptide increases levels of cAMP via activation of a CRFR. One control compares the cAMP level of cells contacted with the peptide and the cAMP level of cells contacted with a control compound (i.e., the vehicle in which the peptide is dissolved).
(§4) In one example, cAMP induction is measured with the use of DNA constructs containing the cAMP responsive element linked to any of a variety of reporter genes can be introduced into cells expressing CRFRs. Such reporter genes include, but are not limited to, chloramphenicol acetyltransferase (CAT), luciferase, glucuronide synthetase, growth hormone, fluorescent proteins (e.g., Green Fluorescent Protein), or alkaline phosphatase. Following exposure of the cells to the peptide, the level of reporter gene expression can be quantitated to determine the peptide's ability to increase cAMP levels and thus determine the peptide's ability to activate the CRFR.
(§5) In addition to using cells expressing full length CRFRs, cells can be engineered which express CRFRs containing the ligand binding domain of the receptor coupled to, or physically modified to contain, reporter elements or to interact with signaling proteins. For example, a wild type CRFR or CRFR fragment can be fused to a G-protein resulting in activation of the fused G-protein upon agonist binding to the CRFR portion of the fusion protein. […] In addition, alternative pathways for induction of the CRE reporter could be eliminated to reduce basal levels.

[2] = target: T2, CRF2R (Homo sapiens, UniProt Q13324); test: CRF2R agonist activation (EC50 / Emax), called comparative CRF binding; type: cell-based; details: for Emax: read-out: CRF2R Emax
T2 sequence (Q13324 1-411): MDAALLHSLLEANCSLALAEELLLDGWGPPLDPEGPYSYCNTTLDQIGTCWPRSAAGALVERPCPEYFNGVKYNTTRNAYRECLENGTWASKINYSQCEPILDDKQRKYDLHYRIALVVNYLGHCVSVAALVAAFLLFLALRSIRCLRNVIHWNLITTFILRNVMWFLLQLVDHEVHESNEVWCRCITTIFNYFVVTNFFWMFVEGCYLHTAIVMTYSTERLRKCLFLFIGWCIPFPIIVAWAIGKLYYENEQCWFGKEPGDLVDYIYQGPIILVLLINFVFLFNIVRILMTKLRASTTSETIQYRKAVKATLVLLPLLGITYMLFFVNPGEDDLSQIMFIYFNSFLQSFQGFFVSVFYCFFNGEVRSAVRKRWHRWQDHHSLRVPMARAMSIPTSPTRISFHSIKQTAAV
Description: as §1, §2, §3, §4, §5

| SMILES | EC50 [1] [µM] | Emax [1] [%] | EC50 [2] [µM] | Emax [2] [%] |
| --- | --- | --- | --- | --- |
| CC[C@H](C)[C@H](NC(=O)[C@@H](NC(=O)[C@H](C)NC(=O)[C@H](CC(C)C)NC(=O)[C@H](CC(C)C)NC(=O)[C@H](CC(C)C)NC(=O)[C@H](C)NC(=O)[C@H](CC(N)=O)NC(=O)[C@H](CC(N)=O)NC(=O)[C@H](C)NC(=O)[C@H](C)NC(=O)[C@H](CCC(N)=O)NC(=O)[C@H](CCC(N)=O)NC(=O)[C@H](CCCCN)NC(=O)[C@H](CCC(=O)O)NC(=O)[C@H](CCCCN)NC(=O)[C@H](CCC(=O)O)NC(=O)[C@H](CCC(N)=O)NC(=O)[C@H](CCCCN)NC(=O)[C@H](CCC(=O)O)NC(=O)[C@@H](NC(=O)[C@H](CCC(=O)O)NC(=O)[C@@H](NC(=O)[C@H](CC(C)C)NC(=O)[C@@H](NC(=O)[C@H](CCCNC(=N)N)NC(=O)[C@H](CC(C)C)NC(=O)[C@H](CC(C)C)NC(=O)[C@H](CCC(N)=O)NC(=O)[C@H](Cc1ccccc1)NC(=O)[C@@H]1CCCN1C(=O)[C@H](CC(C)C)NC(=O)[C@H](CC(=O)O)NC(=O)[C@@H](NC(=O)[C@H](CO)NC(=O)[C@@H](NC(=O)[C@@H]1CCCN1C(=O)[C@@H]1CCCN1C(=O)CNC(=O)[C@@H]1CCC(=O)N1)[C@@H](C)CC)[C@@H](C)CC)C(C)C)[C@@H](C)CC)[C@@H](C)CC)[C@@H](C)O)C(N)=O [compound 361] | 0.149 | 100 | 0.00637 | 99 |
| CC[C@H](C)[C@H](NC(=O)[C@@H](NC(=O)[C@H](CC(=O)O)NC(=O)[C@H](CC(C)C)NC(=O)[C@H](CC(C)C)NC(=O)[C@H](CC(C)C)NC(=O)[C@H](CCCNC(=N)N)NC(=O)[C@H](CC(N)=O)NC(=O)[C@H](CC(N)=O)NC(=O)[C@H](C)NC(=O)[C@H](C)NC(=O)[C@H](CCC(N)=O)NC(=O)[C@H](CCC(N)=O)NC(=O)[C@H](CCCCN)NC(=O)[C@H](CCC(=O)O)NC(=O)[C@H](CCCCN)NC(=O)[C@H](CCC(=O)O)NC(=O)[C@H](CCC(N)=O)NC(=O)[C@H](CCCCN)NC(=O)[C@H](CCC(=O)O)NC(=O)[C@@H](NC(=O)[C@H](CCC(=O)O)NC(=O)[C@@H](NC(=O)[C@H](CCSC)NC(=O)[C@H](CCCCN)NC(=O)[C@H](CCCNC(=N)N)NC(=O)[C@H](CC(C)C)NC(=O)[C@H](CC(C)C)NC(=O)CNC(=O)[C@@H](NC(=O)[C@@H]1CCCN1C(=O)[C@@H](NC(=O)[C@H](CC(=O)O)NC(=O)[C@@H](NC(=O)[C@H](CO)NC(=O)[C@@H](NC(=O)[C@@H]1CCCN1C(=O)[C@@H]1CCCN1C(=O)CNC(=O)[C@@H]1CCC(=O)N1)[C@@H](C)CC)[C@@H](C)CC)C(C)C)[C@@H](C)CC)[C@@H](C)CC)[C@@H](C)CC)[C@@H](C)O)C(N)=O [compound 254] |  | 6 |  | 36 |
| CC[C@H](C)[C@H](NC(=O)[C@@H](NC(=O)[C@H](CC(=O)O)NC(=O)[C@H](CC(C)C)NC(=O)[C@H](CC(C)C)NC(=O)[C@H](CC(C)C)NC(=O)[C@H](CCCNC(=N)N)NC(=O)[C@H](CC(N)=O)NC(=O)[C@H](CC(N)=O)NC(=O)[C@H](C)NC(=O)[C@H](C)NC(=O)[C@H](CCC(N)=O)NC(=O)[C@H](CCC(N)=O)NC(=O)[C@H](CCCCN)NC(=O)[C@H](CCC(=O)O)NC(=O)[C@H](CCCCN)NC(=O)[C@H](CCC(=O)O)NC(=O)[C@H](CCC(N)=O)NC(=O)[C@H](CCCCN)NC(=O)[C@H](CCC(=O)O)NC(=O)[C@@H](NC(=O)[C@H](CCC(=O)O)NC(=O)[C@@H](NC(=O)[C@H](CCSC)NC(=O)[C@H](CCCCN)NC(=O)[C@H](CCCNC(=N)N)NC(=O)[C@H](CC(C)C)NC(=O)[C@H](CC(C)C)NC(=O)[C@H](CCCNC(=N)N)NC(=O)[C@@H](NC(=O)[C@@H]1CCCN1C(=O)[C@H](CC(C)C)NC(=O)[C@H](CC(=O)O)NC(=O)[C@@H](NC(=O)[C@H](CO)NC(=O)[C@@H](NC(=O)[C@@H]1CCCN1C(=O)[C@@H]1CCCN1C(=O)CNC(=O)[C@@H]1CCC(=O)N1)[C@@H](C)CC)[C@@H](C)CC)[C@@H](C)CC)[C@@H](C)CC)[C@@H](C)CC)[C@@H](C)O)C(N)=O [compound 38] | > 1 | 11 | 0.0719 | 91 |
| CC[C@H](C)[C@H](NC(=O)[C@@H](NC(=O)[C@H](CC(=O)O)NC(=O)[C@H](CC(C)C)NC(=O)[C@H](CC(C)C)NC(=O)[C@H](CC(C)C)NC(=O)[C@H](CCCNC(=N)N)NC(=O)[C@H](CC(N)=O)NC(=O)[C@H](CC(N)=O)NC(=O)[C@H](C)NC(=O)[C@H](C)NC(=O)[C@H](CCC(N)=O)NC(=O)[C@H](CCC(N)=O)NC(=O)[C@H](CCCCN)NC(=O)[C@H](CCC(=O)O)NC(=O)[C@H](CCCCN)NC(=O)[C@H](CCC(=O)O)NC(=O)[C@H](CCC(N)=O)NC(=O)[C@H](CCCCN)NC(=O)[C@H](CCC(=O)O)NC(=O)[C@@H](NC(=O)[C@H](CCC(=O)O)NC(=O)[C@@H](NC(=O)[C@H](CCSC)NC(=O)[C@H](CCCCN)NC(=O)[C@H](CCCNC(=N)N)NC(=O)[C@H](CC(C)C)NC(=O)[C@H](CC(C)C)NC(=O)[C@H](Cc1c[nH]c2ccccc12)NC(=O)[C@H](Cc1ccccc1)NC(=O)[C@@H]1CCCN1C(=O)[C@H](CC(C)C)NC(=O)[C@H](CC(=O)O)NC(=O)[C@@H](NC(=O)[C@H](CO)NC(=O)[C@@H](NC(=O)[C@@H]1CCCN1C(=O)[C@@H]1CCCN1C(=O)CNC(=O)[C@@H]1CCC(=O)N1)[C@@H](C)CC)[C@@H](C)CC)[C@@H](C)CC)[C@@H](C)CC)[C@@H](C)O)C(N)=O [compound 217] |  | 100 |  | 95 |
| CC[C@H](C)[C@H](NC(=O)[C@H](CCCNC(=N)N)NC(=O)[C@H](C)NC(=O)[C@H](CC(C)C)NC(=O)[C@H](CC(C)C)NC(=O)[C@H](CCCNC(=N)N)NC(=O)[C@H](C)NC(=O)[C@H](CC(N)=O)NC(=O)[C@H](CC(N)=O)NC(=O)[C@H](C)NC(=O)[C@H](C)NC(=O)[C@H](CCC(N)=O)NC(=O)[C@H](CCC(N)=O)NC(=O)[C@H](CCCCN)NC(=O)[C@H](CCC(=O)O)NC(=O)[C@H](CCCCN)NC(=O)[C@H](CCC(=O)O)NC(=O)[C@H](CCC(N)=O)NC(=O)[C@H](CCCCN)NC(=O)[C@H](CCC(=O)O)NC(=O)[C@@H](NC(=O)[C@H](CCC(=O)O)NC(=O)[C@@H](NC(=O)[C@@H](NC(=O)[C@H](CCCCN)NC(=O)[C@H](CCCNC(=N)N)NC(=O)[C@H](CC(C)C)NC(=O)[C@H](CC(C)C)NC(=O)[C@H](Cc1ccccc1)NC(=O)[C@@H](NC(=O)[C@@H]1CCCN1C(=O)[C@H](CC(C)C)NC(=O)[C@H](CC(=O)O)NC(=O)[C@@H](NC(=O)[C@H](CO)NC(=O)[C@@H](NC(=O)[C@@H]1CCCN1C(=O)[C@@H]1CCCN1C(=O)CNC(=O)[C@@H]1CCC(=O)N1)[C@@H](C)CC)[C@@H](C)CC)[C@@H](C)CC)C(C)C)[C@@H](C)CC)[C@@H](C)CC)C(N)=O [compound 281] |  | 12.2 |  | 78.8 |

Source: patent publication US6936585B2, “Corticotropin releasing factor 2 receptor agonists” (priority 2002, dated 2005)
